From patent US20120177756A1, “Synergistic Compositions That Treat or Inhibit Pathological Conditions Associated With Inflammatory Response” (METAPROTEOMICS, LLC, priority 2002, published 2012)

System: PGE2 synthesis in AGS cells
Assay: PGE2 inhibition in non-stimulated AGS gastric mucosal cells
Assay type: cell-based, human
Details: 100 μM arachidonic acid

Cc1ccc(-c2cc(C(F)(F)F)nn2-c2ccc(S(N)(=O)=O)cc2)cc1 [Celexocib]
IC50 AGS: 0.055 µg/mL (≈ 0.144 µM)

Values after ≈ are worked out from the molar mass of the structure shown.
